Measurements as given in paper PMC9649612, “Molecular docking and biochemical validation of (-)-syringaresinol-4-O-β-D-apiofuranosyl-(1→2)-β-D-glucopyranoside binding to an allosteric site in monoamine transporters” (Frontiers in Pharmacology, 2022).

Tested on: SERT mutant S277C/X5C
Test: Cytoplasmic cysteine accessibility measurement (S277C reactivity with MTSEA, read out by ASP+ binding)
Details: 10 μM ligand + 0.2 mM MTSEA, 25 μg/ml digitonin, 5 min; compared with MTSEA alone

| Compound | Influence of ligand on reactivity of S277C with MTSEA (inactivation of ASP+ binding) |
| --- | --- |
| NCCc1c[nH]c2ccc(O)cc12 [5-HT, 5-hydroxytryptamine] | significantly increased the reactivity of S277C |
| (-)-Syringaresinol-4-O-β-D-apiofuranosyl-(1→2)-β-D-glucopyranoside [SAG] | protect S277C from MTSEA inactivation |
